Experimental data as given in publication PMC8482766 (Journal of Medicinal Chemistry, 2021).

How the values were obtained:
DYRK1A [1] = target: T1, DYRK1A (Homo sapiens, UniProt Q13627); experiment: biochemical; type: binding; conditions: read-out: ka
DYRK1A [2] = target: T1, DYRK1A; type: binding

| SMILES | kon (DYRK1A [1]) [M⁻¹ s⁻¹] | LE (DYRK1A [2]; LE = 1.4(pIC50)/nonhydrogen atoms) | LLE (DYRK1A [2]; LLE = pIC50 – clog P) | fold reduction in DYRK1A binding affinity (DYRK1A [2]; relative to reference compound/matched-molecular pair 11) [fold] |
| --- | --- | --- | --- | --- |
| Nc1nccc(-c2cnn3ncccc23)n1 [Compound 9] | 7.3e+06 |  |  |  |
| CNc1nccc(-c2cnn3ncccc23)n1 [Compound 10] | 6e+06 |  |  |  |
| CN(c1nccc(-c2cnn3ncccc23)n1)C1CC1 [Compound 12, N-Cyclopropyl-N-methyl-4-pyrazolo[1,5-b]pyridazin-3-yl-pyrimidin-2-amine] | 6.3e+06 |  |  |  |
| c1cnn2ncc(-c3ccnc(N4CCC45COC5)n3)c2c1 [Compound 22, 1-(4-Pyrazolo[1,5-b]pyridazin-3-yl-pyrimidin-2-yl)-6-oxa-1-azaspiro[3.3]heptane] | 3.9e+06 |  |  |  |
| CN(C)c1ncc(F)c(-c2cnn3ncccc23)n1 [Compound 95, 5-Fluoro-N,N-dimethyl-4-pyrazolo[1,5-b]pyridazin-3-yl-pyrimidin-2-amine] | 4.7e+06 |  |  |  |
| CN(C)c1ncc(Cl)c(-c2cnn3ncccc23)n1 [Compound 105] | 1.6e+06 |  |  |  |
| CN(C)c1ncnc(-c2cnn3ncccc23)n1 [Compound 109] | 2.9e+06 | 0.52 | 4.86 | > 2 |
